Assay results taken from patent publication US20220274980A1, “PHARMACOLOGICAL INHIBITORS OF THE ENL YEATS DOMAIN” (priority 2019, published 2022).

Amino acid sequences for entries named in this document (tags omitted). Residues count along the entry.
UniProt Q03111, 1-138 limits assumed: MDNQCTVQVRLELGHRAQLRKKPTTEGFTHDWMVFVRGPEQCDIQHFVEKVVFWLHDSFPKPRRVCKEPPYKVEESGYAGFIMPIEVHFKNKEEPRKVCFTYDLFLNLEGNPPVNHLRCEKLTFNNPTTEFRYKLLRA
UniProt Q03111, 1-148 limits assumed: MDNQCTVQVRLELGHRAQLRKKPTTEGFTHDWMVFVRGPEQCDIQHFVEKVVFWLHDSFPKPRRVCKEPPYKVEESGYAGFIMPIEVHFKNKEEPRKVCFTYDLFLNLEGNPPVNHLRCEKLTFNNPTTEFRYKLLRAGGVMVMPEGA

Tests used:
BRD4 bromodomain 1 (BD1) = BRD4 bromodomain 1 (BD1) (Homo sapiens, UniProt O60885); experiment: BRD4 (BD1)-H4 tetra-acetylated HTRF histone-binding assay; conditions: read-out: BRD4 (BD1)-H4 tetra-acetylated HTRF (IC50)
Procedure: Protein Production. Double stranded DNA fragments encoding the protein sequence of ENL YEATS(1-148) were synthesized (IDT DNA) for assembly-based cloning into a modified expression vector backbone derived from pET21a (Novagen). The protein was fused to a StrepII-SUMO and 6×His tag on the amino and carboxy terminus, respectively. Transformed BL21(DE3) cells (New England Biolabs) were grown at 37° C. in 2×YT growth medium to an OD600 of 0.6. Protein expression was induced at 25° C. with the addition of isopropyl-β-D-thiogalactopyranoside (IPTG) to a final concentration of 0.4 mM. The culture was harvested by centrifugation following a 20-hour incubation and subsequently purified by immobilized metal affinity chromatography. Cells were resuspended 50 mM Tris-HCl pH 8.0, 300 mM NaCl, 10% glycerol, 10 mM imidazole, 1 mM DTT containing Complete EDTA-free protease inhibitor (Roche) and lysed by two passes through a MicroFluidizer at 10,000 psi. The lysate was clarified by centrifugation at 16,000 rpm for 30 minutes at 4° C. […]
Homogenous time-resolved FRET (HTRF) histone-binding assays. […] Assays were incubated for 2 or more hours before measurement of HTRF signal on a PHERAstar plate reader (BMG Labtech; simultaneous dual emission; excitation=337 nm, emission 1=665 nm, emission 2=620 nm). […]

ENL(YEATS)-HiBiT = ENL(YEATS)-HiBiT (Homo sapiens, UniProt Q03111)
[1] = molecular target: ENL YEATS domain (association with H3K27cr) (Homo sapiens, UniProt Q03111)

CC(C)NC(=O)c1ccc2nc(-c3cccnc3)cn2c1
IC50 (BRD4 bromodomain 1 (BD1); Table 1): > 50 µM | IC50 (BRD4 bromodomain 1 (BD1); Table 2): > 50 µM | IC50 (ENL(YEATS)-HiBiT): 75 µM | IC50 [1]: 6.5 µM

Where two headings read alike, the source gives them in different places.
